A short description of this data set: physchem. To be noted: 25 °C, aqueous with cosolvent or surfactant or cyclodextrin, thermodynamic from solid, Solubility in water with solubilizer.

Converted amounts (≈) assume the structure as drawn.

Consider 1 molecule from patent publication US20110033525A1, “Diterpene Glycosides as Natural Solubilizers” (priority 2008, published 2011).

As usually defined, the solubility is the concentration that dissolves in the medium under given conditions. A low value points to little dissolved substance.

Molecule `CC(=O)O[C@H]1C(=O)[C@@]2(C)[C@H]([C@H](OC(=O)c3ccccc3)[C@]3(O)C[C@H](OC(=O)[C@H](O)[C@@H](NC(=O)c4ccccc4)c4ccccc4)C(C)=C1C3(C)C)[C@]1(OC(C)=O)CO[C@@H]1C[C@@H]2O` [Paclitaxel, reference compound] had a solubility of 232 µg/mL (≈ 272 µM).
